Assay results as given in PubChem BioAssay AID720509 (The Scripps Research Institute Molecular Screening Center, 2013).
The entries are a selection whose mix differs from that of the whole data set. Activity calls are given as the source filed them.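 Rule for the calls: active = inhibition above a per-campaign cutoff: mean of compounds within control limits plus 3 SD (cut at about 15% in these data); inactive = the rest.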

By UniProt entry, the sequences of proteins in these tests, tags left out. Where a name states a change or a piece, a line headed by the entry shows the natural chain unless it says otherwise.
UniProt P02675: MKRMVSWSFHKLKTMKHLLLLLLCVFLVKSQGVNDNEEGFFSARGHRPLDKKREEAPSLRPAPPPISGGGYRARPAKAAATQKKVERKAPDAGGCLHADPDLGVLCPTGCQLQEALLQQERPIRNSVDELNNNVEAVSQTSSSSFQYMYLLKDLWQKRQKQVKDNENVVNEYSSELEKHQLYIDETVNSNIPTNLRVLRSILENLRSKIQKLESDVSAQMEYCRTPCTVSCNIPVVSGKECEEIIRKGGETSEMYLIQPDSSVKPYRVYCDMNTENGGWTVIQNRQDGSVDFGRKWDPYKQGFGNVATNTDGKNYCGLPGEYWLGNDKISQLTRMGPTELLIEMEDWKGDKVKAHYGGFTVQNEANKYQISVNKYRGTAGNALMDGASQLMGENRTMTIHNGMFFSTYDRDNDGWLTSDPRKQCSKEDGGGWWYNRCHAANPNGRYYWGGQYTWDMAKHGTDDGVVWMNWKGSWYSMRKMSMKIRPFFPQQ

What follows are compounds tested against Fibrinogen beta chain (Homo sapiens) (UniProt P02675) (assay: small molecules displacing Tn6 from DD(E) complex – biochemical, fluorescence polarization, human fibrin, Tn6 probe, primary screen (AID 720509;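 note: 0% = median of all compound wells on the plate and 100% = blocking peptide control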)). Details: Fibrin DD(E) TRITC-Tn6 fluorescence polarization displacement; at 8.3 µM; hits give high values.

Compound | inhibition
CC(NC(=O)COC(=O)C(O)(c1ccccc1)c1ccccc1)c1ccccc1 (stereo not given) | inactive: -1.38%
Cc1ccccc1OP(=O)(Nc1ccccn1)Oc1ccccc1C | inactive: -1.43%
CCNC(=S)/N=C(\N)N[N+](=O)[O-] | inactive: -2.81%
O=C(NC1CCS(=O)(=O)C1)NP(=S)(Oc1ccccc1)Oc1ccccc1 (stereo not given) | inactive: -2.63%
Cc1ccc(NP(=O)(Oc2cccc(C)c2)Oc2cccc(C)c2)nc1 | inactive: 2.98%
c1ccc(-c2nn[nH]n2)c(-c2nn[nH]n2)c1 | inactive: 1.18%
O=P1(N(CCCl)CCCl)OCCC2CCCCN21 (stereo not given) | inactive: -0.63%
CC(=O)NC(SC(=S)N(C)C)C(Cl)(Cl)Cl (stereo not given) | inactive: 0.34%
O=[N+]([O-])c1ncn(CCn2cnc([N+](=O)[O-])n2)n1 | inactive: -3.3%
O=[As](O)(c1ccccc1)c1ccc(O)cc1 | inactive: -1.85%
C(Cc1nn[nH]n1)Cc1nn[nH]n1 | inactive: 3.49%
Nc1ccc([As](=O)(O)c2ccc([N+](=O)[O-])cc2)cc1 | inactive: -1.04%
C/C(N)=N\P(=O)(OCc1ccccc1)OCc1ccccc1 | inactive: 4.92%
O=C(OC1CN2CCC1CC2)c1cccc(Cl)c1 (stereo not given) | inactive: -8.51%
COc1ccc(N)c([N+](=O)[O-])c1[N+](=O)[O-] | inactive: 2.58%
Nc1ccc(CCCCOc2ccccc2)cc1 | inactive: 0.34%
O=P(Nc1ccccn1)(c1ccc(Br)cc1)c1ccc(Br)cc1 | inactive: -1.29%
CN(C)C1(CNC(=O)c2ccc(Cl)c(S(N)(=O)=O)c2)CCCCC1 | inactive: 6.52%
C[C@H]1OP(=O)(Oc2ccccc2)[C@H](O)[C@H](O)[C@H]1N=[N+]=[N-] (stereo not given in full) | inactive: -3%
O=P(Nc1nc2ccccc2s1)(c1ccccc1)c1ccccc1 | inactive: -3.1%
CC(C)C(=O)NC(Sc1ccccc1)C(Cl)(Cl)Cl (stereo not given) | inactive: 2.27%
O=P(Nc1nccs1)(c1ccccc1)c1ccccc1 | inactive: -5.74%
c1nnnn1CCn1cnnn1 | inactive: 1.44%
COc1ccccc1CNC(=O)COC(=O)C(O)(c1ccccc1)c1ccccc1 | inactive: -2.59%
CC1(CBr)Cn2c(nc3ccccc3c2=O)S1 (stereo not given) | inactive: 1.74%
CN(C(=O)Cc1ccc(Cl)c(Cl)c1)C1CCCC[C@@H]1N1CCCC1 (stereo not given in full) | inactive: -5.19%
CC(C)/C=N\N=C(\N)N[N+](=O)[O-] | inactive: -2.45%
CN(C(=O)Cc1ccc(Cl)c(Cl)c1)[C@@H]1CCCC[C@H]1N1CCCC1 | inactive: -4.69%

Compound | inhibition
CCOP(=O)(Nc1ccc(C)cn1)OCC | inactive: 1.01%
CN(CCCl)Cc1cc(Cl)c(NC2=NCCN2)c(Cl)c1 | inactive: 2.79%
CCOP(=O)(NC(=NC(C)c1ccccc1)NC(C)c1ccccc1)OCC (stereo not given) | inactive: 6.79%
O=P1(Nc2ccccn2)COc2ccccc2OC1 | inactive: 1.56%
CCC1=CC2Cc3nc4ccc(Cl)cc4c(N)c3C(C1)C2 (stereo not given) | inactive: 0.9%
CC(C)(C)C(=O)NC(Sc1ncccn1)C(Cl)(Cl)Cl (stereo not given) | inactive: -5.62%
O=P1(N(CCCl)CCCl)NCCC(C(F)(F)F)O1 (stereo not given) | inactive: 3.52%
Clc1n[nH]nc1-c1nn[nH][15n]1 | inactive: 1.57%
O=P1(Nc2ncccn2)COc2ccccc2OC1 | inactive: -1.83%
Cc1ccc(S(=O)(=O)N(CCCN)CCCc2c(C)nc(N)[nH]c2=O)cc1 | inactive: -3.39%
Cc1ccc(OCC(=O)OC2CN3CCC2CC3)cc1 (stereo not given) | inactive: -0.22%
O=[As](O)(c1cccs1)c1cccs1 | inactive: 8.2%
O=P1(Nc2ccc(Br)cn2)COc2ccccc2OC1 | inactive: -0.43%
NS(=O)(=O)c1cccc(NC(=O)COC(=O)C(O)(c2ccccc2)c2ccccc2)c1 | inactive: -5.75%
Nc1cccc([As](=O)(O)c2ccccc2)c1 | inactive: -2.98%
CC1CCC(C(C)C)C(OP(=O)(Nc2ccccn2)c2ccccc2)C1 (stereo not given) | inactive: 0.13%
Cc1ccc(C(=O)OC2CN3CCC2CC3)cc1 (stereo not given) | inactive: 2%
Cc1nn(-c2ccccc2)c2c1P(=O)(N1CCOCC1)N(C)C(c1ccccc1)=N2 (stereo not given) | inactive: 2.76%
CCCC1OP(=O)(Nc2ccccc2)OCC1CC (stereo not given) | inactive: -3.2%
O=C(/C=C/c1ccccc1)OC1CN2CCC1CC2 (stereo not given) | inactive: 0.88%
CN(C)C1(CNC(=O)c2ccc(S(C)(=O)=O)cc2)CCCCC1 | inactive: -11.7%
NC(=O)Nc1ccc([As](=O)(O)O)cc1 | inactive: 4.4%
CN(C(=O)Cc1ccc(Cl)c(Cl)c1)[C@H]1CC[C@@]2(CCCO2)C[C@@H]1N1CCCC1 | inactive: 4.91%
O=[N+]([O-])c1ccc2c(c1)nnn2O | inactive: -7.05%
CN(C)C(=O)c1cc([N+](=O)[O-])cc2c1-c1c(cc([N+](=O)[O-])cc1[N+](=O)[O-])C2=O | inactive: -1.55%
CCOP1(=S)c2c(C)nn(CCC#N)c2N=C(c2ccc(F)cc2)N1C (stereo not given) | inactive: 5.5%
CN(C(=O)Cc1ccccc1)[C@@H]1CC[C@]2(CCCO2)C[C@H]1N1CCCC1 | inactive: -2.61%
